One substance from patent US20180311124A1, “CLIMBAZOLE MICROCAPSULE AND HAIR CARE COMPOSITION COMPRISING SURFACTANT AND CLIMBAZOLE” (priority 2015, published 2018) can be followed below.

The text on the data set: A number of perfume components, perfume mixtures and oils considered to be safe to use on scalp were screened to evaluate their ability to solubilise climbazole. Because emulsion polymerisation also encapsulates the solvent an efficient solvent is needed to get a high loading of climbazole into a microcapsule.

For Eucalyptus oil, the “ability to solubilise climbazole” value is “failed to solubilise it at any ratio tested”.
